Assay results: patent US6150376A, “Bi- and tri-cyclic aza compounds and their uses” (Georgetown University, priority 1998, dated 2000)

Protein sequences, listed by entry. Tags and fused reporters are not part of them. Residues count along the entry.
UniProt Q63380, 1-617: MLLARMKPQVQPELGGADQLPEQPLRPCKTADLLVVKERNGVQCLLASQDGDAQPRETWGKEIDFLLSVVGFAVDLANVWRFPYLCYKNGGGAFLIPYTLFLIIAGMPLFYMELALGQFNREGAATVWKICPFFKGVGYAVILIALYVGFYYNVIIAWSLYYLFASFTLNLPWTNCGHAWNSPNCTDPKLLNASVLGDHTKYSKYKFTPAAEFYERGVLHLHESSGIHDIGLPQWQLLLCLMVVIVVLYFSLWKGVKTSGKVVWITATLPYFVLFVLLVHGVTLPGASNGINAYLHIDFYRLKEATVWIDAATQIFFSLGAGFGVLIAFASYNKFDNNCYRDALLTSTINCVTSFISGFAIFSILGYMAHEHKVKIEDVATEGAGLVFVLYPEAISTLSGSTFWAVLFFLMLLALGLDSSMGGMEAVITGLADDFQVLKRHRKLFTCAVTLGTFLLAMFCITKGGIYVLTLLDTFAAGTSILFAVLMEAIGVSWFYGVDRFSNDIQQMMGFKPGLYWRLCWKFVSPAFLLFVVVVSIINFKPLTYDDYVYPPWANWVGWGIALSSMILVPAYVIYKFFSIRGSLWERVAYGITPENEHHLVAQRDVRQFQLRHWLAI
UniProt P31652, whole entry: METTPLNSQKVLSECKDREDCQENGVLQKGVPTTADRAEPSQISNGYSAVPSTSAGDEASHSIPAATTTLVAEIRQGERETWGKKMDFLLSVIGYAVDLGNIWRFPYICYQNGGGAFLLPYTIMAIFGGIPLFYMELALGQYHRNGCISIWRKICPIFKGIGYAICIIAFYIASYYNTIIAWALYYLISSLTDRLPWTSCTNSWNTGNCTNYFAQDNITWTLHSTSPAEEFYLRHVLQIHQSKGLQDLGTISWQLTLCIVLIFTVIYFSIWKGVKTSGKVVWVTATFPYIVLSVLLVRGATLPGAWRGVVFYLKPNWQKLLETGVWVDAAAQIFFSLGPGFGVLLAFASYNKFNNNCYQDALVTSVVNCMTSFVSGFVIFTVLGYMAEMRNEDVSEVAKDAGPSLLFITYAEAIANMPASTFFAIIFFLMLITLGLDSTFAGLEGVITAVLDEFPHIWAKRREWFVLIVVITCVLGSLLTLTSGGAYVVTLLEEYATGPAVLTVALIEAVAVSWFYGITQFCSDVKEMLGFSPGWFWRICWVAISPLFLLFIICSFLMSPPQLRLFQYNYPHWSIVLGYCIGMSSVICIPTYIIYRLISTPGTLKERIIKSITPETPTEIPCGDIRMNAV

Assays:
[1] = biological target: T1, norepinephrine transporter (Rattus norvegicus, UniProt Q63380); test: [3H]NE uptake (re-uptake inhibition at the norepinephrine transporter); assay type: biochemical; details: Ki ± SE; Krebs-Ringer-HEPES buffer
T1 construct: from tissue
Description: (§1) Various isomeric forms of front-bridged Compounds 4, 5, 29, 30, 31, 40 and 50a and back-bridged Compounds 41, 42a, 42b, 49a and 50a were assayed for binding at the dopamine transporter and for inhibition of monamine re-uptake at the dopamine, serotonin and norepinephrine transporters. Mazindol binding were measured as previously described in Johnson et. al., 1992, Eur. J. Pharmacol., Mol. Pharmacol. Sect., 227:411-415. Reuptake inhibition was measured essentially as described in Yi et. al., 1991, Neuropharmacol. 29:475-486, except that an identical Krebs-Ringer-HEPES buffer was used for binding and all uptake assays (Slusher et al., 1997, Drug Alcohol Depend. 48:43-50).

serotonin transporter = biological target: T2, serotonin transporter (Rattus norvegicus, UniProt P31652); test: [3H]5-HT uptake (re-uptake inhibition at the serotonin transporter); assay type: biochemical; details: Ki ± SE; Krebs-Ringer-HEPES buffer
T2 construct: from tissue
Description: as §1

cocaine [reference compound]
Ki [1]: 83.3 ± 1.5 nM
Ki (serotonin transporter): 154.7 ± 0.4 nM
